By UniProt entry, the sequences of proteins in these tests, tags left out. Where a name states a change or a piece, a line headed by the entry shows the natural chain unless it says otherwise.
UniProt P56524: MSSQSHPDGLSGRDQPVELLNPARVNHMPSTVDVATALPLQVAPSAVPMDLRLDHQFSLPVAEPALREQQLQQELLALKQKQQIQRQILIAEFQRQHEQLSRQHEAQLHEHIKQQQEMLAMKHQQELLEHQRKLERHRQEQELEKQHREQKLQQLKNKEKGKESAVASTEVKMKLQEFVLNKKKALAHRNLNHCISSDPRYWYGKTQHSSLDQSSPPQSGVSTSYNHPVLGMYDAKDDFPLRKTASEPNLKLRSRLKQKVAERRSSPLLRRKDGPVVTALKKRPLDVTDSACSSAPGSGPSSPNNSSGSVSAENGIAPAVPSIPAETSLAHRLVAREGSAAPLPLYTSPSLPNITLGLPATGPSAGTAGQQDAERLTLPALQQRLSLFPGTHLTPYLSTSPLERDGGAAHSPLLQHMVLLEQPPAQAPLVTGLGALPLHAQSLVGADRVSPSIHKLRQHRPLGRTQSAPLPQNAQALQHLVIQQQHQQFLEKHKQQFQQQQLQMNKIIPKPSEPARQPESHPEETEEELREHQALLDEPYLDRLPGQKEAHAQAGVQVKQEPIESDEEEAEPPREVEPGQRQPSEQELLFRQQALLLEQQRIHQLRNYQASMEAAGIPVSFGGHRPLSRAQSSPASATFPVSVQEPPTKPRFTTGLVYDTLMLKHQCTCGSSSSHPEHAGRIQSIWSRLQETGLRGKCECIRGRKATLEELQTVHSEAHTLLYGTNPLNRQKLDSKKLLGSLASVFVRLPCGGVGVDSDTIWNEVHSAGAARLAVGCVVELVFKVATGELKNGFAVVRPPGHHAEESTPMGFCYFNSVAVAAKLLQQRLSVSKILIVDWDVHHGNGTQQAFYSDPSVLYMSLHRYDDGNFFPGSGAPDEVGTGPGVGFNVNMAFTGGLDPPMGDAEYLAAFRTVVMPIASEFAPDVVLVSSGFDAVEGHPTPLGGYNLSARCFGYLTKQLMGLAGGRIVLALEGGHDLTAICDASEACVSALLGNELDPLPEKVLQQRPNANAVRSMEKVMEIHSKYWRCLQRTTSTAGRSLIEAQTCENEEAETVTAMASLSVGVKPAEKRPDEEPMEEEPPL

In ChEMBL document CHEMBL4765362, “Thirty Years of HDAC Inhibitors: 2020 Insight and Hindsight” (J Med Chem, 2020):

Target: Histone deacetylase 4 (Homo sapiens, UniProt P56524)
Assay: Inhibition of human full length recombinant HDAC4 using p53 (379 to 382 residues) Ac-LGK(TFA)-AMC as substrate preincubated for 5 to 10 mins followed by substrate addition and measured after 2 hrs by fluorescence method

CN1CCc2c(c3ccccc3n2Cc2ccc(C(=O)NO)cc2)C1 [TUBASTATIN A]
pIC50: 5.52

pIC50: −log10 of the molar value.
